Literature values, collected in patent US11578100B2, “Cyclic peptides, cyclic peptide conjugates and methods of use thereof” (Florida Atlantic University Board of Trustees, priority 2018, dated 2023).

The chains behind the UniProt entries cited, without tags or fusion partners.
UniProt P35372, whole entry: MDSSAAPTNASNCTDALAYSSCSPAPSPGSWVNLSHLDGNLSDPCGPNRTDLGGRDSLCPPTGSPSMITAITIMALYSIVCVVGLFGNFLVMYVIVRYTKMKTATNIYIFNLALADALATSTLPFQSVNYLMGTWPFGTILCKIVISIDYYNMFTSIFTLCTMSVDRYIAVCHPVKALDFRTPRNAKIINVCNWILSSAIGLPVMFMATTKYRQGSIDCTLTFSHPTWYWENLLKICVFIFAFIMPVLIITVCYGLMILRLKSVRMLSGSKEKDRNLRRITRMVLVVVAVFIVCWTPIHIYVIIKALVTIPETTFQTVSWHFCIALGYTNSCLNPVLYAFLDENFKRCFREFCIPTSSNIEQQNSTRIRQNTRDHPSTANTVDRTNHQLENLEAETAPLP

Molecular target: T1, μ opioid receptor (MOR) (Homo sapiens, UniProt P35372)
T1 construct: expressed in transfected cells; host or cells: CHO cells
Details: Janecka et al. 2003; read-out: Kd opioid receptor μ, literature data (parenthesis) (converted); cited from earlier work

In the case of `CC(C)C[C@@H](NC(=O)[C@H](Cc1ccccc1)NC(=O)CNC(=O)[C@@H](C)NC(=O)[C@@H](N)Cc1ccc(O)cc1)C(=O)O` [DADLE, [D-Ala^2, D-Leu^5] enkephalin, reference compound], the Kd is given as 11.4 nM.
